Measured values reported in patent US12679848B2, “Plasma kallikrein inhibitors” (Merck Sharp & Dohme LLC, priority 2020, dated 2026).

By UniProt entry, the sequences of proteins in these tests, tags left out. Residues count along the entry.
UniProt P03951, 388-625 limits assumed: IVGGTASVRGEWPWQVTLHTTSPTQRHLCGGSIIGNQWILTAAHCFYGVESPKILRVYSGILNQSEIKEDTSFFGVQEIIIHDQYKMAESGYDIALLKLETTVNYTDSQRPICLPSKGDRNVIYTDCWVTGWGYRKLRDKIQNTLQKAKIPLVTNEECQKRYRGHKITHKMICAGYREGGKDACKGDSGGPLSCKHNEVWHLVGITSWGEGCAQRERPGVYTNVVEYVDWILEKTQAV
UniProt P03951, 19-387 partner limits assumed: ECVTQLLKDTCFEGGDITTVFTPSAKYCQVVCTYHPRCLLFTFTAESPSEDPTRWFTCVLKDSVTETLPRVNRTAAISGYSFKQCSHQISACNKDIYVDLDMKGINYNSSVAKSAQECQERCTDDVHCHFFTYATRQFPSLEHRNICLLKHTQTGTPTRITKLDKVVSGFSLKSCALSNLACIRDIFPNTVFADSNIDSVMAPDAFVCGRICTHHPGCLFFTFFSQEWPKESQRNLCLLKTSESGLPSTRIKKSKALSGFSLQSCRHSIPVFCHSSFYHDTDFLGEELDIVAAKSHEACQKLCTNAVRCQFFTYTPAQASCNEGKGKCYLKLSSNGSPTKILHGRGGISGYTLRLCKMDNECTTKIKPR
UniProt P03952, 391-638 limits assumed: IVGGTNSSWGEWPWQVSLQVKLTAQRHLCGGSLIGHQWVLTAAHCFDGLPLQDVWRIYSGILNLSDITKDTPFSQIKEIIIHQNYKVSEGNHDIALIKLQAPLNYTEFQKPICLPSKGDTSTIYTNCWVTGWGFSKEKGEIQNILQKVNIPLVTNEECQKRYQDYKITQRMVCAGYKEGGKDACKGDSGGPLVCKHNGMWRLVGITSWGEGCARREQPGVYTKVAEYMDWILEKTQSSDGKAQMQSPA
UniProt P03952, 20-390 partner limits assumed: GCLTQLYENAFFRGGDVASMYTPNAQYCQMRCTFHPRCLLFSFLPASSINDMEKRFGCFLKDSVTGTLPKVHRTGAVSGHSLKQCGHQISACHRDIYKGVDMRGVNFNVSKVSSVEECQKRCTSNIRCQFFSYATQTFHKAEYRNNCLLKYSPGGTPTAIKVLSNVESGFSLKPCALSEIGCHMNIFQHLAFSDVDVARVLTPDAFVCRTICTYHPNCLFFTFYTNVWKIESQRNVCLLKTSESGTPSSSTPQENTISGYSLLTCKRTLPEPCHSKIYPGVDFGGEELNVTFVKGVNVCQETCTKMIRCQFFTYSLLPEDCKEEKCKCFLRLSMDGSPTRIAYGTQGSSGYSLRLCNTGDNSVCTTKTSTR

Key:
human factor XIa = human factor XIa (Homo sapiens, UniProt P03951); experiment: Factor XIa Assay; details: read-out: FXIa IC50; human factor XIa 0.04 nM, substrate GPR-AFC, 30 min pre-incubation, 25° C., pH 7.4
Experimental: The effectiveness of a compound of the present invention as an inhibitor of Coagulation factor XIa can be determined using a relevant purified serine protease, and an appropriate synthetic substrate. The rate of hydrolysis of the chromogenic or fluorogenic substrate by the relevant serine protease was measured both in the absence and presence of compounds of the present invention. Assays were conducted at rt or at 37° C. […] A decrease in the rate of fluorescence change in the presence of inhibitor is indicative of enzyme inhibition. Such methods are known to one skilled in the art. The results of this assay are expressed as the half-maximal inhibitory concentrations (IC50), or the inhibitory constant, Ki.
Compounds were pre-incubated for 30 min at 25° C. with human (0.04 nM) factor XIa in 50 mM HEPES buffer with 150 mM sodium chloride, 5 mM calcium chloride, 0.1% PEG 8000, pH 7.4. factor XIa enzymatic activity was determined by addition of the substrate glycine-proline-arginine-7-amido-4-trifluoromethylcoumarin (GPR-AFC) and measurement of the fluorescence at 400/505 nm after a 60 min incubation at 25° C. The % inhibition for each data point was calculated from the data and analyzed using the log (inhibitor) vs. response four parameters equation to determine the half-maximal inhibitory concentrations (IC50). […]

Human plasma kallikrein = Human plasma kallikrein (Homo sapiens, UniProt P03952); experiment: Plasma Kallikrein Assay; details: read-out: PKal IC50; purified Human plasma kallikrein 0.5 nM, substrate Acetyl-K-P-R-AFC, HEPES pH 7.4

## Nc1c(C(=O)N2CCC[C@@]3(C2)OC(=O)Nc2ccc(Cl)c(F)c23)cnn1Cc1cccnc1 [Example 55, (R)-1'-(5-Amino-1-(pyridin-3-ylmethyl)-1H-pyrazole-4-carbonyl)-6-chloro-5-fluorospiro[benzo[d][1,3]oxazine-4,3'-piperidin]-2(1H)-one]
Human factor XIa
  IC50: 358 nM
Human plasma kallikrein
  IC50: 2.5 nM
